# Patent publication US6908912B2, “Pyrithione biocides enhanced by zinc metal ions and organic amines” (priority 1999, dated 2005)
# Test: Solubility and stability of concentrated mixtures of sodium pyrithione, ZnCl2 and organic amines (Example 55)
# Details: room temperature
# [1] = mixture of NaPT 10.00, ZnCl2 1.74, organic amine(s) 60.50, water 27.76 weight %
substance,measurement,setting,value
2-(methylamino)ethanol,Appearance at 24 Hrs,[1],S
same,Appearance at 72 Hrs,[1],S
same,solubility and stability of mixture after 24 and 72 hours,"mixtures of sodium pyrithione, ZnCl2 and the named amine",soluble and stable mixtures
